Earlier results, collected in US7447594B2, “Molecular cardiotoxicology modeling” (Ocimum Biosolutions, Inc., priority 2001, dated 2008).

Assays:
[1] = single intraperitoneal doses of 1-32 mg/kg; cited from earlier work
[2] = rat, in vivo; cited from earlier work

CC(N)C(O)c1ccccc1 (stereo not drawn) [phenylpropanolamine]
blood pressure [1]: dose-dependent increased blood pressure | heart pathology following termination [1]: myocardial necrosis | myocardial contractility and coronary blood flow [2]: myocardial contractile depression without altering global coronary artery blood flow
